Proliferation data for one molecule are collected here from patent US11357850B2, “Methods for treating breast cancer using INOS-inhibitory compositions” (The Methodist Hospital, priority 2014, dated 2022).

The test system of one experiment is MDA-MB-231. Kind of experiment: Cell proliferation assay (WST-1), iNOS inhibitors. Format: cell-based, human. The conditions noted are these: 1, 2 and 4 mM, 96 hrs. The procedure:
(§1) Cell Culture. Mesenchymal-like triple negative breast cancer cell lines, MDA-MB-231 and SUM159, were purchased from American Type Culture Collection and Asterand, respectively. […] Mammosphere forming efficiency (MSFE), cell proliferation and migration assays are detailed below. Cell culture and mammosphere forming efficiency assay. […] After treatment with either 1, 2, and 4 mM (1400 W and L-NMMA) or 1, 2, and 5 mM L-NAME for 96 hrs, primary mammospheres (MS) were scanned and counted using a colony counter (GelCount, Oxford Optronicx Abington, UNITED KINGDOM). Primary MSFE was evaluated dividing mammosphere number by cell number. […] Secondary MS were scanned, counted and secondary MSFE were assessed. […] Proliferation rate was determined by adding premixed WST-1 reagent (Clontech). After incubation at 37° C. for 3 hrs, absorbance was read at 450 nm (reference wavelength 690 nm).

A further experiment deals with SUM159. Kind of experiment: Cell proliferation assay (WST-1), iNOS inhibitors. Format: cell-based, human. The conditions noted are these: 1, 2 and 4 mM, 96 hrs. As for the experimental part:
as §1

Take `CC(=N)NCc1cccc(CN)c1` [1400 W, N-[[3-(aminomethyl)phenyl]methyl]-ethanimidamide]: the proliferation result in the experiment on MDA-MB-231 and in the experiment on SUM159 was “significantly decrease proliferation” each time.
